The values that follow come from EP2810648A1, “Targeting domain-domain interaction for the identification of kinase modulators” (Rauh, Daniel, priority 2013, dated 2014).

Sequences of proteins named here, by UniProt entry; tags and fusion partners are left off.
UniProt P31749, whole entry E49C/C296S/C310S/C344S: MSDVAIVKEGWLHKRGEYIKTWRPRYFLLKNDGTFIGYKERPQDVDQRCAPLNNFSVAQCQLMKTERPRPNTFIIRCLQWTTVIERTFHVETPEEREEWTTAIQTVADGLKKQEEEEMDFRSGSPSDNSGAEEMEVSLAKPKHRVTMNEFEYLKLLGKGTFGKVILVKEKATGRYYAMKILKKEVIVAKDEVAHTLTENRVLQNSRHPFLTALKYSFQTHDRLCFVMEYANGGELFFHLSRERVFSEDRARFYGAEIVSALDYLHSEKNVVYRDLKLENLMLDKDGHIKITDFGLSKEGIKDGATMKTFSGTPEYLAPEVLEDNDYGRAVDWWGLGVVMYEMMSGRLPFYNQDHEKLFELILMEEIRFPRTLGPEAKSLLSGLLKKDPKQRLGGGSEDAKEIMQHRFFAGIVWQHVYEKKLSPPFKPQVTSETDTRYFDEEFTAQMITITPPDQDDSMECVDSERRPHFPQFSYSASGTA

The subject of one assay is ΔPH-Akt1. The experiment in a line: KinEASE activity assay, ΔPH-Akt1. In kind it is biochemical, Human. As to conditions: n.i. = no inhibition up to 200 µM.
As to `c1ccc(-c2cn(-c3ccccc3)c3ncnc(NCc4cccnc4)c23)cc1`, the “IC50 ΔPH-Akt1” value was “n.i”.
The same measure, in the same setting: as for `c1ccc(-c2cn(-c3ccccc3)c3ncnc(NCc4cccs4)c23)cc1`, the entry is “n.i”; as for `Cc1ccc(-n2cc(-c3ccccc3)c3c(NCc4cccs4)ncnc32)cc1`, “n.i”; as for `Fc1ccc(-n2cc(-c3ccccc3)c3c(NCc4ccccn4)ncnc32)cc1`, “n.i”.
Same read-out and setting: next, `Cc1cccc(-n2cc(-c3ccccc3)c3c(NCc4cccs4)ncnc32)c1`: “n.i”; `Cc1ccc(-n2cc(-c3ccccc3)c3c(NCc4ccccc4)ncnc32)cc1`: “n.i”; `Cc1ccc(-n2cc(-c3ccccc3)c3c(NCc4cccs4)ncnc32)cc1Cl`: “n.i”.

Another assay addresses Human Akt1 (UniProt entry P31749) (Homo sapiens, UniProt P31749, C296S/C310S/C344S/E49C). Nature of the assay: iFLiK assay (fluorophore-labeled Akt1 binding assay).
Conditions: not given
For the compound `O=c1[nH]ccc2nc(-c3ccc(CN4CCC(n5c(=O)[nH]c6cc(Cl)ccc65)CC4)cc3)c(-c3ccccc3)cc12`, the “effect on PyMPO fluorescence (emission spectrum)” value was “the same as with MK-2206”.
